The list shows a part of the results, in another mix than the full data. The source made the active and inactive calls. Cut-off read from the data, not from the text of the source: active = activation above about 1.3%; inactive = the rest.
Test: parental HEK293-CNG cell agonism artefacts – fluorescence, high throughput, counter-screen for GalR3 antagonist project (AID 652268)
Details: HEK293-CNG parental cells, cAMP membrane potential fluorescence; at 3 µM; hits give high values; normalised: DMSO wells 0%, forskolin wells 100%

| SMILES | activation |
| --- | --- |
| CCN(CC)CCCOC(=O)C(O)(c1ccccc1)c1ccccc1 | inactive: 0.3% |
| O=[N+]([O-])c1cc([N+](=O)[O-])c(Nc2ccc(Cl)cc2)c([N+](=O)[O-])c1 | inactive: 0.13% |

Source: PubChem BioAssay AID652268 (The Scripps Research Institute Molecular Screening Center, 2013)
